The values that follow come from ChEMBL document CHEMBL5365545, “Synthesis and Optimization of 1-Substituted Imidazo[4,5-c]quinoline TLR7 Agonists” (ACS Med Chem Lett, 2023).

What all share (type): cell-based
Assay [1] has as its target T1, Toll-like receptor 7 (Mus musculus) (UniProt P58681).
T1 sequence (whole entry): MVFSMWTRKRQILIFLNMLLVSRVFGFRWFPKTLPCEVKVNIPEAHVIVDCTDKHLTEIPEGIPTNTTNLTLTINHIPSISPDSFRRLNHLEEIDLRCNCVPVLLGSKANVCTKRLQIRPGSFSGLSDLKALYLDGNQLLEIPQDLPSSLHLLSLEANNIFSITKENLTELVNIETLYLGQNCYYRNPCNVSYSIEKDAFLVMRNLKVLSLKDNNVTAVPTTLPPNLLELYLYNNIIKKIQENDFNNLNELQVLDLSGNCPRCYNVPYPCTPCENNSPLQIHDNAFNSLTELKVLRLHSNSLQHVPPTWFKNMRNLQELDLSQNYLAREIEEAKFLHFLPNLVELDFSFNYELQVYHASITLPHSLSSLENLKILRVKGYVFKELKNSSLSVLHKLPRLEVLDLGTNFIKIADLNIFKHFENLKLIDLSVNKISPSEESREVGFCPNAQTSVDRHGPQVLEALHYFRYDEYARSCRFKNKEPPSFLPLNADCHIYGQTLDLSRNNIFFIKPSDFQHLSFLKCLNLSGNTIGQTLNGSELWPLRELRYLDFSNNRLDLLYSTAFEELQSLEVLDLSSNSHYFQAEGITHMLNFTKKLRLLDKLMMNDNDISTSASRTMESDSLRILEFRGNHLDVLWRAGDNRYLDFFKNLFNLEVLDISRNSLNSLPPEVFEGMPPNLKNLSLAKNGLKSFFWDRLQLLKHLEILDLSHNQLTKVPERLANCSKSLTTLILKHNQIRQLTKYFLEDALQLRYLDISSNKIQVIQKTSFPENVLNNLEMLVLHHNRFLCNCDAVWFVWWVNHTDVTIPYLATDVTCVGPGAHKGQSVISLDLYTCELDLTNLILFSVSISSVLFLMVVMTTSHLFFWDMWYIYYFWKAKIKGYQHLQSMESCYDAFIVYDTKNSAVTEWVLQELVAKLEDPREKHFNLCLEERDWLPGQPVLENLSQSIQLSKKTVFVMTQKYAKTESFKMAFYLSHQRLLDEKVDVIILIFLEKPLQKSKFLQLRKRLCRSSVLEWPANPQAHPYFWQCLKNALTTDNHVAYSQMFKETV
Nature of the assay: Agonist activity at TLR7 in mouse RAW264.7 cells assessed as increase in NFkappaB activation. Conditions: filed as agonist.

Assay [2] addresses T2, Toll-like receptor 8 (Homo sapiens) (UniProt Q9NR97).
T2 sequence (whole entry): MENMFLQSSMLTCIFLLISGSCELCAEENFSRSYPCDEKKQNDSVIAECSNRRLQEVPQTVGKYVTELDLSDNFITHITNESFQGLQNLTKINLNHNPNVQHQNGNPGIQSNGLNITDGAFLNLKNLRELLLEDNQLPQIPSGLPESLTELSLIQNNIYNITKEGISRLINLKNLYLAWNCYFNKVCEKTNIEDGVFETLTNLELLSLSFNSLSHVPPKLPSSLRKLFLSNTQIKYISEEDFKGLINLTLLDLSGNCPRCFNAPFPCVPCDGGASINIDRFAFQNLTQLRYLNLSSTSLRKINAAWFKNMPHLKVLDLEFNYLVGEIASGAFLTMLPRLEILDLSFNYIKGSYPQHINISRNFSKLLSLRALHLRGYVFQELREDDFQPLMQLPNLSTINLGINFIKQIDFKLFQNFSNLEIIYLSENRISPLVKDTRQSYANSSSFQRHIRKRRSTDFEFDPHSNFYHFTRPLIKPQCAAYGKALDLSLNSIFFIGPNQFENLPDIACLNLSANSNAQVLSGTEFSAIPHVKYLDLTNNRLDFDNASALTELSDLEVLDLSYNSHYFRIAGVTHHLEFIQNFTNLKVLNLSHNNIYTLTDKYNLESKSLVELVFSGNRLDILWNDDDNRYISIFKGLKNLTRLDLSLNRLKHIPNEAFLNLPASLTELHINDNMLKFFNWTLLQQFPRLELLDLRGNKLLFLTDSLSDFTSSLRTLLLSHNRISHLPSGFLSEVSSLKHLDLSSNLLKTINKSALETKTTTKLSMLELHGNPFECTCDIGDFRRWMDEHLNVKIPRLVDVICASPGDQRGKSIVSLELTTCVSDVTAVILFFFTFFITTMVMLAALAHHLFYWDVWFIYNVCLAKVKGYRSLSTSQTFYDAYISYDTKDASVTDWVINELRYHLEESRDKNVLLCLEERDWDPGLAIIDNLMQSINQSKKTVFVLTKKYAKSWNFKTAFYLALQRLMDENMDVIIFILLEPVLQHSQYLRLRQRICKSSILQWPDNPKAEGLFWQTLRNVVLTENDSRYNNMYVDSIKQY
Nature of the assay: Agonist activity at TLR8 in GM-CSF induced human MDM cells assessed as increase in TNFalpha release at 2000 nM measured after 6 hrs. The note with it: filed as agonist.

For assay [3], the target named is T2, Toll-like receptor 8 (Homo sapiens). Briefly: Agonist activity at TLR8 in HEK-Blue hTLR8 cells assessed as increase in NFkappaB activation at below 10 uM.

Active and inactive are the calls of the source. No cut-off for these calls is given here.

Consider `CCCCc1nc2c(N)nc3ccccc3c2n1Cc1ccc(NC(=O)OC(C)C)cc1`, for which the result in assay [1] was Active.
In the case of `CCCCc1nc2c(N)nc3ccccc3c2n1Cc1ccc(NC(=O)CCNC(=O)OC(C)(C)C)cc1`, the result in assay [2] and in assay [1] was Active. Besides, in assay [3], the outcome was inactive.
On to `CCCCC(=O)Nc1ccc(Cn2c(CCCC)nc3c(N)nc4ccccc4c32)cc1`, for which the result in assay [1] was Active.
